{"source": "patent US20060171941A1", "target": "bovine submaxillary mucin (TAG-72 positive) (bovine)", "experiment": "competition RIA against 125I-mCC49 on BSM; relative affinity constant, modified Scatchard"}
{"substance": "murine CC49 monoclonal antibody", "values": [{"measurement": "Ka", "value": "1.98e+08", "unit": "M⁻¹"}]}
